# In PubChem BioAssay AID1216 (Sanford-Burnham Center for Chemical Genomics, 2008):
# Protein sequences, listed by entry. Tags and fused reporters are not part of them.
# UniProt P34949, whole entry: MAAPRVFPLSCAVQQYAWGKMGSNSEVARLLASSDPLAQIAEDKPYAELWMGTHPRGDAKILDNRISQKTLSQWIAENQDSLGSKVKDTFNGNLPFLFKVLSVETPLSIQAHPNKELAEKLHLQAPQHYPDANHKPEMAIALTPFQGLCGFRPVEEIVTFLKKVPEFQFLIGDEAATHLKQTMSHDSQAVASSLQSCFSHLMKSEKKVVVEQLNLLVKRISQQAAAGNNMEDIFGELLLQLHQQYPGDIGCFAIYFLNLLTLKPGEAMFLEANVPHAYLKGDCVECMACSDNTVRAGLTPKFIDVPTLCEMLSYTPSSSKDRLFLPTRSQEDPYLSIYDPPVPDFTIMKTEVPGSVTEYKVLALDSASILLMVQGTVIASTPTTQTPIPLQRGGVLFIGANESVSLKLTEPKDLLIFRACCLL
# The entries are a selection whose mix differs from that of the whole data set. Calls of active or inactive are those of the source.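 The calls were made as follows: active = activation factor of 2 or more at 20 µM; inactive = the rest.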
# Molecular target: Mannose-6-phosphate isomerase (Homo sapiens) (UniProt P34949)
# Assay: MPI activation at elevated mannose 6-phosphate – biochemical, fluorescence intensity, near-saturating mannose 6-phosphate, primary screen (AID 1216)
# Conditions: coupled PMI enzyme assay, resazurin fluorescence, 20 min, at 20 µM; hits give high values, 1 = untreated enzyme, 0 = substrate-free blank
# Summary of the method: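 Test system: Human PMI in coupled enzyme assay | Input: 15 ng/mL PMI | Medium: HEPES-buffered pH 7.4 with magnesium and detergent | Compound: One concentration, 20 µM, in 1% DMSO | Incubation: Enzyme reaction with compound 20 min at room temperature | Detection: Diaphorase-driven resazurin-to-resorufin fluorescence, excitation 544, emission 590 nm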
row,SMILES,activation factor
1,CC1CCC(C(C)C)C(OP(=O)(Nc2ccccn2)c2ccccc2)C1 (stereo unspecified),inactive
2,COc1cc(C2NCCC3(OCCO3)C2(C)C)cc(OC)c1OC.O=[N+]([O-])c1cc([N+](=O)[O-])c(O)c([N+](=O)[O-])c1 (stereo unspecified),inactive
3,CCCOc1ccc(NP(C)(=O)Oc2ccc(Cl)cc2)cc1 (stereo unspecified),inactive: 1
4,CP(=O)(Nc1ccc(SC(F)(F)F)cc1)Oc1ccccc1 (stereo unspecified),inactive: 1
5,CN1CCCCC1COC(=O)C1(O)c2ccccc2CCc2ccccc21 (stereo unspecified),inactive: 0.8
6,COc1ccccc1OP(C)(=O)Nc1c(C)cccc1C (stereo unspecified),inactive: 1.1
7,Clc1n[nH]nc1-c1nn[nH][15n]1,inactive
8,O=[N+]([O-])c1cc([N+](=O)[O-])c(-n2nnc3ccccc32)c([N+](=O)[O-])c1,inactive: 1
9,O=P1(Nc2ccccn2)COc2ccccc2OC1,inactive
10,CN(C(=O)Cc1ccc(Cl)c(Cl)c1)[C@@H]1CCCC[C@H]1N1CCCC1,inactive
11,Cc1nc2ccc3ccccc3c2s1.O=[N+]([O-])c1cc([N+](=O)[O-])c(O)c([N+](=O)[O-])c1,inactive: 0.8
12,Cc1cc(C)cc(OP(C)(=O)Nc2ccc(C)cc2C)c1 (stereo unspecified),inactive: 1
13,Cc1cccc(OCC(=O)OC2CN3CCC2CC3)c1 (stereo unspecified),inactive
14,CCOC(=O)c1ccc(NP(C)(=O)Oc2cc(C)cc(C)c2)cc1 (stereo unspecified),inactive: 1
15,CCOP(=O)(Nc1cccc2ccccc12)OCC,inactive
16,Cc1cc(C)cc(OP(C)(=O)Nc2ccccn2)c1 (stereo unspecified),inactive: 0.9
17,CP(=O)(Nc1cccc(Br)c1)Oc1ccccc1 (stereo unspecified),inactive: 0.9
18,Cc1ccc(C)c(NP(C)(=O)Oc2ccccc2)c1 (stereo unspecified),inactive: 1
19,O=P(Nc1nccs1)(Oc1ccccc1)Oc1ccccc1,inactive
20,CCOP1(=S)c2c(C)nn(CCC#N)c2N=C(c2ccccc2F)N1C (stereo unspecified),inactive
21,CCOP1(=S)c2c(C)nn(CCC#N)c2N=C(c2ccc(F)cc2)N1C (stereo unspecified),inactive
22,CC1=NCCc2c1[nH]c1ccccc21.O=[N+]([O-])c1cc([N+](=O)[O-])c(O)c([N+](=O)[O-])c1,inactive: 1

row,SMILES,activation factor
1,Cc1cccc(C)c1OP(C)(N)=O (stereo unspecified),inactive: 1.4
2,CC(C)(C)c1ccc(OP(C)(=O)Nc2ccc(SC(F)(F)F)cc2)cc1 (stereo unspecified),inactive: 0.9
3,O=[N+]([O-])c1ccc2c(c1)C=Nc1ccccc1O2,inactive: 0.4
4,Cc1ccc2nc3c(c(C)c2c1)CC(C(Cl)Cl)S3 (stereo unspecified),inactive
5,COc1ccc(OP(C)(=O)Nc2cccc(F)c2)cc1 (stereo unspecified),inactive: 1
6,COc1ccccc1OP(C)(=O)Nc1cc(Cl)ccc1C (stereo unspecified),inactive: 1
7,CCN(CC)C(=S)SC(NC=O)C(Cl)(Cl)Cl (stereo unspecified),inactive
8,Cc1cc(C)cc(OP(C)(N)=O)c1 (stereo unspecified),inactive: 0.9
9,CCOC(=O)c1ccc(NP(C)(=O)Oc2ccccc2)cc1 (stereo unspecified),inactive: 0.9
10,Cc1ccc(NP(C)(=O)Oc2ccccc2)c(C)c1 (stereo unspecified),inactive: 1.1
11,COc1ccccc1OP(C)(=O)Nc1ccc(C)cc1 (stereo unspecified),inactive: 0.9
12,COc1ccc2nc(NP(=O)(c3ccccc3)c3ccccc3)sc2c1,inactive
13,Cc1c2c(nc3ccccc13)SC(C(Cl)Cl)C2 (stereo unspecified),inactive
14,Cc1cc(=O)[nH]c(N[N+](=O)[O-])n1,inactive
15,CCN(CC)CCCOC(=O)C(O)(c1ccccc1)c1ccccc1,inactive: 1
16,COc1ccc(N/C(=N/P(=O)(N2CCOCC2)N2CCOCC2)N2CCOCC2)cc1,inactive
17,Cc1cc(C)cc(OP(C)(=O)Nc2ccc(SC(F)(F)F)cc2)c1 (stereo unspecified),inactive: 0.8
18,CP(=O)(NC(=O)Nc1ccccc1)Oc1ccccc1 (stereo unspecified),inactive: 1
19,O=C(COc1ccccc1)OC1CN2CCC1CC2 (stereo unspecified),inactive
20,CP(=O)(Oc1ccccc1)OC(c1ccccc1)C(F)(F)F (stereo unspecified),inactive: 1
21,Cc1cccc(C)c1OP(C)(=O)Nc1ccc(SC(F)(F)F)cc1 (stereo unspecified),inactive: 0.7
22,CP(=O)(Nc1ccccn1)Oc1ccc(Cl)cc1 (stereo unspecified),inactive: 1

row,SMILES,activation factor
1,CCOP(C)(=S)SCC(=O)NC(C)C(=O)O (stereo unspecified),inactive: 0.9
2,CCOC(=O)c1ccc(NP(C)(=O)Oc2ccc(OC)cc2)cc1 (stereo unspecified),inactive: 1.1
3,COc1ccccc1OP(C)(=O)Nc1ccccc1 (stereo unspecified),inactive: 1
4,CP(=O)(Nc1ccccc1Br)Oc1ccccc1 (stereo unspecified),inactive: 1
5,CP(=S)(Nn1cnnc1)Oc1ccccc1 (stereo unspecified),inactive: 0.9
6,CP(=O)(OC12CC3CC(CC(C3)C1)C2)OC12CC3CC(CC(C3)C1)C2,inactive: 1
7,CCOC(=O)c1ccc(NP(C)(=O)Oc2ccc(Cl)cc2)cc1 (stereo unspecified),inactive: 1
8,CCc1ccc(OP(C)(=O)Nc2cccnc2)cc1 (stereo unspecified),inactive: 1
9,CP(=O)(Oc1ccccc1)N1CCOC1=O (stereo unspecified),inactive: 1
10,CC(=O)N1C2C3N(C(C)=O)C1C1N(C(C)=O)C(C(N1C(C)=O)N3C(C)=O)N2C(C)=O,inactive
11,COc1ccccc1OP(C)(=O)Nc1c(C)n(C)n(-c2ccccc2)c1=O (stereo unspecified),inactive: 0.9
12,COc1ccc(OP(C)(=O)Nc2ccc(Br)cc2)cc1 (stereo unspecified),inactive: 0.9
13,CCN(CC)CC(O)COC(=O)C(O)(c1ccccc1)C1CCCCC1 (stereo unspecified),inactive
14,CC1CCN(C(=O)Oc2c(Cl)cc(Cl)c3cccnc23)CC1,inactive
15,CN(C)C(=O)c1c([N+](=O)[O-])cc([N+](=O)[O-])cc1[N+](=O)[O-],inactive: 0.5
16,CP(=O)(Nc1ccc(Cl)cc1)Oc1ccc(F)cc1 (stereo unspecified),inactive: 1
17,CCN(/C(=N/P(=O)(N1CCOCC1)N1CCOCC1)N1CCOCC1)c1ccc(OC)cc1,inactive
18,COc1ccccc1OP(C)(=O)Nc1ccccc1Br (stereo unspecified),inactive: 1.1
19,CC(C)(C)c1ccc(OP(C)(=O)O)cc1,inactive: 1
20,CN(C)CCOC(=O)C(O)(c1ccccc1)C1CCCC1 (stereo unspecified),inactive: 1.1
21,COc1ccccc1OP(=O)(Nc1ccc(C)cn1)Oc1ccccc1OC,inactive
22,COc1ccc(OP(C)(=O)Nc2ccccn2)cc1 (stereo unspecified),inactive: 0.9

row,SMILES,activation factor
1,Cc1ccc(N/C(=N/P(=O)(N2CCOCC2)N2CCOCC2)N2CCOCC2)cc1,inactive
2,NC(=O)c1cc([N+](=O)[O-])cc([N+](=O)[O-])c1N,inactive
3,CCc1ccc(OP(C)(=O)O)cc1,inactive: 1
4,COc1ccccc1OP(C)(=O)Nc1ccc(C)cc1C (stereo unspecified),inactive: 1
5,CP(=O)(Nc1ccccn1)Oc1ccccc1 (stereo unspecified),inactive: 1
6,Oc1ccccc1CNc1ccccn1,inactive
7,Cc1c(NP(C)(=O)Oc2ccc(C(C)C)cc2)c(=O)n(-c2ccccc2)n1C (stereo unspecified),inactive: 1.2
8,O=[N+]([O-])c1cc([N+](=O)[O-])c(Nc2ccccn2)c([N+](=O)[O-])c1,inactive: 0.3
9,CC(C)CC(=O)NC(Sc1ccc(Cl)cc1)C(Cl)(Cl)Cl (stereo unspecified),inactive
10,COc1ccc(OP(C)(=O)Nc2ccccc2Br)cc1 (stereo unspecified),inactive: 1.1
11,COc1ccccc1OP(C)(=O)Nc1ccc(C)c(C)c1 (stereo unspecified),inactive: 1
12,CCOP(=O)(Nc1ccccc1)OCC,inactive
13,Cc1cc(C)cc(OP(C)(=O)Nc2cccc(C(F)(F)F)c2)c1 (stereo unspecified),inactive: 0.9
14,CP(=O)(Nc1ccc(Cl)cc1Cl)Oc1ccccc1 (stereo unspecified),inactive: 1
15,CP(=O)(OCCOc1ccccc1)OCCOc1ccccc1,inactive: 0.9
16,Cc1nc2ccc3ccccc3c2o1.O=[N+]([O-])c1cc([N+](=O)[O-])c(O)c([N+](=O)[O-])c1,inactive: 0.4
17,COc1ccc(OP(C)(=O)Nc2ccc(SC(F)(F)F)cc2)cc1 (stereo unspecified),inactive: 1.1
18,CCOC(=O)c1ccc(NP(C)(=O)Oc2ccc(F)cc2)cc1 (stereo unspecified),inactive: 1
19,CCOC(=O)NC(Sc1ccccc1)C(Cl)(Cl)Cl (stereo unspecified),inactive
20,CP(=O)(Nc1ccccc1)Oc1ccc(F)cc1 (stereo unspecified),inactive: 1.1
21,CCC(=O)N1C2C3N(C(=O)CC)C1C1N(C(=O)CC)C(C(N1C(=O)CC)N3C(=O)CC)N2C(=O)CC,inactive
22,CCN(CC)CCCOC(=O)C(O)(c1ccccc1)C1CCCCC1 (stereo unspecified),inactive: 1.2

row,SMILES,activation factor
1,COC(=O)c1cc2c(s1)N=C(c1ccccc1)N(C)P2(=O)N1CCOCC1 (stereo unspecified),inactive
2,CC(C)c1ccc(OP(C)(=O)Nc2ccc(SC(F)(F)F)cc2)cc1 (stereo unspecified),inactive: 0.8
3,CC(C)(C)C(=O)NC(Sc1ccccc1)C(Cl)(Cl)Cl (stereo unspecified),inactive
4,CP(=O)(Nc1ccccc1F)Oc1ccccc1 (stereo unspecified),inactive: 1
5,CCOc1ccc(C2=NCC(CBr)S2)cc1 (stereo unspecified),inactive
6,CC(=O)Nc1ccc(Oc2c([N+](=O)[O-])cc([N+](=O)[O-])cc2[N+](=O)[O-])cc1,inactive
7,O=C(OCCN1CCN(CCOCc2ccccc2)CC1)C(O)(c1ccccc1)c1ccccc1,inactive: 1.3
8,c1nnnn1CCn1cnnn1,inactive
9,CCOP(C)(=S)SCC(=O)NC(C)(CC)C(=O)O (stereo unspecified),inactive: 0.8
10,CC(C)C(=O)NC(Sc1ccccc1)C(Cl)(Cl)Cl (stereo unspecified),inactive
11,Cc1ccccc1NP(C)(=O)Nc1ccccc1C,inactive: 1
12,CP(=O)(Nc1ccc2c(c1)OCCO2)Oc1ccccc1 (stereo unspecified),inactive: 1
13,COc1ccc(NP(C)(=O)Oc2ccccc2OC)cc1 (stereo unspecified),inactive: 1.1
14,CN(C)CCOC(=O)C(O)(c1ccccc1)C1CCCCC1 (stereo unspecified),inactive
15,O=P(Nc1ccccn1)(c1ccc(Br)cc1)c1ccc(Br)cc1,inactive
16,COc1ccc(OP(C)(=O)Nc2cccc(Br)c2)cc1 (stereo unspecified),inactive: 1
17,O=[N+]([O-])c1cc([N+](=O)[O-])c(NCC2CCS(=O)(=O)C2)c([N+](=O)[O-])c1 (stereo unspecified),inactive: 0.6
18,CC(=O)NC(SC(=S)N(C)C)C(Cl)(Cl)Cl (stereo unspecified),inactive
